From ChEMBL document CHEMBL5244277, “A review upon medicinal perspective and designing rationale of DPP-4 inhibitors” (Bioorg Med Chem, 2021)

Experiments:
Homo sapiens [1] = species: Homo sapiens; assay: Selectivity index, ratio of IC50 for human DPP-4 to IC50 for human DPP-9
Homo sapiens [2] = species: Homo sapiens; assay: Selectivity index, ratio of IC50 for human DPP-4 to IC50 for human DPP-8

CC#CCn1c(N2CCC[C@@H](N)C2)cc(=O)n(Cc2cn(CC(=O)N(C)C)nn2)c1=O
Ratio IC50 (Homo sapiens [1]): 3500 | Ratio IC50 (Homo sapiens [2]): 3500
